# Assay results reported in patent US20240189490A1, “ANTIMICROBIAL ELUTING AIRWAY DEVICES” (priority 2021, published 2024).
# Assay: Release of loaded protein or peptide from coated ET tubes in PBS
# Type: physicochemical
# Conditions: from PLGA coated ET tubes, PBS at 37° C. shaking at 100 rpm, after initial burst release
# Description: Release Quantification. Release of loaded protein or peptide from ET tubes was achieved from quartered tube segments in PBS at 37° C. while shaking at 100 rpm. FITC-BSA elution and PLGA degradation samples were obtained by completely removing the supernatant and adding fresh PBS to each well. FITC-BSA release was measured via fluorescence on a Synergy H1 Microplate Reader (BioTek) with 485 nm excitation and 515 nm emission wavelengths. PLGA degradation was quantified via EnzyFluo L-Lactate Assay Kit (Bioassay Systems). Peptide release was quantified via Pierce Quantitative Fluorometric Peptide Assay (Thermo Scientific). Total encapsulation of FITC-BSA coated tubes was determined by 2.5M NaOH degradation at room temperature rotating at 40 rpm for 72 hours and measuring fluorescence as previously described.
substance,measurement,value
albumin-fluorescein isothiocyanate conjugate [FITC-BSA],linear release,1.89 µg/day
